The test system of this assay is MEFs. Nature of the assay: RIPK1 kinase-dependent necroptosis (hTNF + TAK1i + zVAD.fmk) in MEFs, Sytox Green. The class given is cell-based. The conditions noted are these: Mus musculus, zVAD.fmk + TAK1i + hTNF (100 pg/mL).
In the case of `Cc1cccc(CC(=O)N2CCc3c2ccc(-c2cn(C)c4ncnc(N)c24)c3F)n1` [Compound 10], the IC50 worked out at 4.4 nM.
With `Cn1cc(-c2ccc3c(c2F)CCN3C(=O)Cc2ccc(C(F)(F)F)cn2)c2c(N)ncnc21` [Compound 22], the IC50 came out at 15 nM.
Regarding `CN1C(=O)[C@@H](NC(=O)c2n[nH]c(Cc3ccccc3)n2)COc2ccccc21` [GSK’772], the IC50 is greater than 100 nM.

Broadly, the IC50 is the concentration at which inhibition is half-maximal.

The values above are taken from article PMC10119423, “From PERK to RIPK1: Design, synthesis and evaluation of novel potent and selective necroptosis inhibitors” (Frontiers in Chemistry, 2023).
